The list shows a part of the results, in another mix than the full data. Active and inactive are the calls of the source.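 Rule for the calls: active = inhibition above mean plus 3 SD of compounds lying within the high and low control bounds (cut at about 19% in these data); inactive = the rest.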

Amino acid sequences for entries named in this document (tags omitted).
UniProt Q9NZ20, whole entry: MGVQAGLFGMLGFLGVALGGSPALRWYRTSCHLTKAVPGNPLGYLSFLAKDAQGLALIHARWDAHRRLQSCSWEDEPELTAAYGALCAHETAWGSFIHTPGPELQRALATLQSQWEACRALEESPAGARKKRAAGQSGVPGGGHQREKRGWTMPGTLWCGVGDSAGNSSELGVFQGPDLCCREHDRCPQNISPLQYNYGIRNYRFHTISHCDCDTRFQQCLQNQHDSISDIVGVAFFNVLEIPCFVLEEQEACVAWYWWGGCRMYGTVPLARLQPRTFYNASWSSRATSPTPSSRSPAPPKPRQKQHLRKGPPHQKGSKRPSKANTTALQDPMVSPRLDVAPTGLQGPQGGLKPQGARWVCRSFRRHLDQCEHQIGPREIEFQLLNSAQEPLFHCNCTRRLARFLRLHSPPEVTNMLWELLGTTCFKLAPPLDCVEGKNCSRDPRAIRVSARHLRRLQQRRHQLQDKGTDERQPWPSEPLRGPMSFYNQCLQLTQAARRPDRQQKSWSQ

The target of this test is Group 3 secretory phospholipase A2 (Homo sapiens) (UniProt Q9NZ20). Briefly: HGIII-sPLA2 enzyme inhibition – biochemical, QFRET, BODIPY PC-A2 liposome substrate, primary screen (AID 743126).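 Note: 0% = median of test compound wells and 100% = no enzyme DMSO wells.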 As to conditions: QFRET BODIPY PC-A2 liposome hydrolysis, fluorescence; at 12.2 µM; hits give high values.
`N#Cc1ccc(C(=O)NCC2(N3CCCCC3)CCCCC2)cc1`: the inhibition (commonly the change of the read-out against control, counted positive when it falls) is inactive: 4.05%.

Take `CC(C)(C)OC(=O)N1CCC(N(C(=O)c2ccccc2)c2ccc(Cl)cc2)CC1`: the inhibition is inactive: 1.49%.

In the case of `CC(C)(C)n1nnnc1C(c1cccc2ccccc12)N1CCC(n2c(=O)[nH]c3ccccc32)CC1` (stereo not given), the inhibition was inactive: -15.5%.

For `CN(C)C1(CNC(=O)c2cccc(C#N)c2)CCCCC1`, the inhibition is inactive: 2.79%.

As for `Cc1cc(N(CCCl)CCCl)ccc1C=O`, the inhibition is inactive: 0.33%.

Consider `O=c1[nH]c2ccccc2n1C1CCN(C(c2ccccc2)c2nnnn2C2CCCC2)CC1` (stereo not given), for which the inhibition was inactive: 1.23%.

In the case of `CCCN1CCC(Nc2cc(OC)cc(OC)c2)CC1`, the inhibition is inactive: 13.7%.

Regarding `C/C(N)=N\P(=O)(Oc1ccccc1)Oc1ccccc1`, the inhibition is inactive: 4.23%.

`c1ccc(CN2CCC(Nc3ccccc3)CC2)cc1`: the inhibition is inactive: 3.42%.

`NC(=O)C1(Nc2ccccc2)CCN(Cc2ccccc2)CC1`: the inhibition is inactive: -0.36%.

In the case of `O=c1[nH]c2ccccc2n1C1CCN(C(c2cccs2)c2nnnn2C2CCCCC2)CC1` (stereo not given), the inhibition is inactive: -8.57%.

With `O=c1[nH]c2ccccc2n1C1CCN(C(c2ccnc3ccccc23)c2nnnn2C2CCCC2)CC1` (stereo not given), the inhibition is inactive: -10.5%.

In the case of `COc1ccc(C(=O)NCC2(N3CCOCC3)CCCCC2)cc1OC`, the inhibition is inactive: 1.28%.

Regarding `COc1cc(C(=O)NCC2(N3CCOCC3)CCCCC2)cc(OC)c1C`, the inhibition is inactive: 14.3%.

For `CCCCn1nnnc1C(c1ccccc1)N1CCC(n2c(=O)[nH]c3ccccc32)CC1` (stereo not given), the inhibition was inactive: -19.9%.

As for `O=C(NCC1(N2CCOCC2)CCCCC1)c1cc(Br)ccc1Cl`, the inhibition is inactive: 10.9%.

`O=c1[nH]c2ccccc2n1C1CCN(C(c2cccs2)c2nnnn2C2CCCC2)CC1` (stereo not given): the inhibition is inactive: -16.3%.

In the case of `O=C(OC1CN2CCC1CC2)C1c2ccccc2C=Cc2ccccc21` (stereo not given), the inhibition was inactive: -14.6%.

Consider `CCCCn1nnnc1C(c1cccc(OC)c1OC)N1CCC(n2c(=O)[nH]c3ccccc32)CC1` (stereo not given), for which the inhibition was inactive: -20.9%.

Turning to `CCOC(=O)N1CCC(Nc2ccc(C)cc2)CC1`, the inhibition was inactive: 4.67%.

Regarding `COc1cccc(C(c2nnnn2C(C)(C)C)N2CCC(n3c(=O)[nH]c4ccccc43)CC2)c1OC` (stereo not given), the inhibition was inactive: -10.6%.

With `N/C(=N\O)c1c(N)no[n+]1[O-]`, the inhibition was inactive: 2.59%.

`NN(c1ccccc1)C1CCN(CCc2ccccc2)CC1`: the inhibition was inactive: -2.78%.

For the compound `O=C(O)C1(Nc2ccccc2)CCN(Cc2ccccc2)CC1`, the inhibition is inactive: -2.52%.

`CC(C)(C)OC(=O)N1CCC(Nc2ccccc2)CC1`: the inhibition is inactive: 6.06%.

As to `O=c1[nH]c2ccccc2n1C1CCN(C(c2cc3ccccc3o2)c2nnnn2C2CCCC2)CC1` (stereo not given), the inhibition is inactive: -18.7%.

For the compound `CCCOc1ccc(C(=O)NCC2(N(C)C)CCCCC2)cc1`, the inhibition is inactive: 14.7%.

`CN1CCC(Nc2ccc(F)c(Cl)c2)CC1`: the inhibition was inactive: -0.8%.

Turning to `CCOc1ncccc1C(=O)NCC1(N2CCOCC2)CCCCC1`, the inhibition was inactive: 0.26%.

Regarding `CN1CCC(Nc2ccc(Cl)cc2)CC1`, the inhibition is inactive: 9.92%.

As to `COc1cccc(C(=O)N(c2cc(C)cc(C)c2)C2CCN(C(=O)OC(C)(C)C)CC2)c1`, the inhibition was inactive: -5.8%.

Consider `COc1cc(OC)cc(C(=O)NCC2(N3CCOCC3)CCCCC2)c1`, for which the inhibition is inactive: -2.72%.

Regarding `COc1cccc(C(c2nnnn2C2CCCC2)N2CCC(n3c(=O)[nH]c4ccccc43)CC2)c1OC` (stereo not given), the inhibition was inactive: -14.2%.

As to `CCC(CO)(C(=O)OC1CN2CCC1CC2)c1ccccc1` (stereo not given), the inhibition was inactive: -5.09%.

For the compound `Fc1ccccc1NC1CCN(Cc2ccccc2)CC1`, the inhibition is inactive: -2.59%.

Turning to `Cc1ccc(C(=O)NCC2(N3CCCCC3)CCCCC2)o1`, the inhibition was inactive: 5.89%.

Consider `Cc1ccc(NC2(C#N)CCN(Cc3ccccc3)CC2)cc1`, for which the inhibition is inactive: 4.13%.

As for `CCC(c1nnnn1C1CCCCC1)N1CCC(n2c(=O)[nH]c3ccccc32)CC1` (stereo not given), the inhibition is inactive: 2.18%.

Take `COc1cccc(C(c2nnnn2C2CCCCC2)N2CCC(n3c(=O)[nH]c4ccccc43)CC2)c1OC` (stereo not given): the inhibition is inactive: -25.2%.

Regarding `CC(=O)N(c1ccccc1)C1CCNCC1`, the inhibition was inactive: 16.6%.

With `COc1cc(OC)cc(C(=O)NCC2(N3CCCCC3)CCCCC2)c1`, the inhibition was inactive: 0.48%.

For `O=c1[nH]c2ccccc2n1C1CCN(C(c2ccnc3ccccc23)c2nnnn2C2CCCCC2)CC1` (stereo not given), the inhibition was inactive: -4.54%.

As for `CN(C)c1ccc(C(=O)NCC2(N3CCCCC3)CCCCC2)cc1`, the inhibition was inactive: 2.84%.

Consider `Cn1c(=O)[nH]cc(N(CCCl)CCCl)c1=O`, for which the inhibition is inactive: 1.22%.

Take `O=C(NCC1(N2CCCCC2)CCCCC1)c1ccco1`: the inhibition is inactive: -8.9%.

Consider `CCN1CCC(Nc2cccc(F)c2)CC1`, for which the inhibition is inactive: 1.59%.

As to `COc1ccc(C(c2nnnn2C2CCCCC2)N2CCC(n3c(=O)[nH]c4ccccc43)CC2)cc1` (stereo not given), the inhibition is inactive: -1.73%.

Take `CC(C)(C)n1nnnc1C(c1ccnc2ccccc12)N1CCC(n2c(=O)[nH]c3ccccc32)CC1` (stereo not given): the inhibition was inactive: -10.8%.

On to `Cc1ccccc1NC1(C#N)CCN(Cc2ccccc2)CC1`, for which the inhibition is inactive: -1.9%.

On to `CCOC(=O)N1CCC(Nc2ccc(F)cc2)CC1`, for which the inhibition was inactive: 6.9%.

With `COc1ccc(NC2CCN(CCc3ccccc3)CC2)c(OC)c1`, the inhibition is inactive: 12.8%.

As to `CCCCOc1ccc(C(=O)NCC2(N3CCOCC3)CCCCC2)cc1`, the inhibition was inactive: 1.93%.

Consider `CCCCn1nnnc1C(c1cc2ccccc2o1)N1CCC(n2c(=O)[nH]c3ccccc32)CC1` (stereo not given), for which the inhibition is inactive: -5.57%.

Regarding `O=P1(N(CCCl)CCCl)SCCCS1`, the inhibition was inactive: 6.04%.

On to `O=C(NCC1(N2CCCCC2)CCCCC1)c1ccc(F)cc1`, for which the inhibition is inactive: 0.6%.

For `O=C1CCN(Cc2ccccc2)CC1`, the inhibition is inactive: 4.69%.

Regarding `CC(C)(C)n1nnnc1C(c1ccccc1)N1CCC(n2c(=O)[nH]c3ccccc32)CC1` (stereo not given), the inhibition is inactive: -0.02%.

Turning to `CCOc1ccc(C)cc1CN(CCCl)CCCl`, the inhibition is inactive: 5.09%.

Turning to `CCOC(=O)N1CCC(Nc2cccc(C)c2)CC1`, the inhibition was inactive: 15.5%.

Regarding `COc1cc(C(=O)NCC2(N(C)C)CCCCC2)ccc1OC(F)F`, the inhibition is inactive: 14.5%.

As for `O=c1[nH]c2ccccc2n1C1CCN(C(c2cccc3ccccc23)c2nnnn2C2CCCC2)CC1` (stereo not given), the inhibition is inactive: -2.45%.

Take `O=c1[nH]c2ccccc2n1C1CCN(C(c2ccccc2)c2nnnn2C2CCCCC2)CC1` (stereo not given): the inhibition was inactive: 12%.

On to `Cc1cccc(NC2(C#N)CCN(Cc3ccccc3)CC2)c1`, for which the inhibition was inactive: -0.72%.

For `CSc1ccccc1C(=O)NCC1(N2CCCCC2)CCCCC1`, the inhibition was inactive: 2.44%.

As for `CC(C)(C)OC(=O)N1CCC(N(C(=O)c2ccccc2)c2ccc(F)cc2)CC1`, the inhibition was inactive: -2.53%.

Take `COc1ccc(C(=O)NCC2(N3CCCCC3)CCCCC2)c(OC)c1OC`: the inhibition is inactive: 5.76%.

As to `CCC(c1nnnn1C1CCCC1)N1CCC(n2c(=O)[nH]c3ccccc32)CC1` (stereo not given), the inhibition was inactive: -3.86%.

Take `COc1ccc(C(=O)NCC2(N3CCCCC3)CCCCC2)cc1`: the inhibition is inactive: 2.36%.

In the case of `O=C(NCC1(N2CCCCC2)CCCCC1)c1cccs1`, the inhibition is inactive: 2.13%.

On to `CCCCn1nnnc1C(CC)N1CCC(n2c(=O)[nH]c3ccccc32)CC1` (stereo not given), for which the inhibition is inactive: 15.9%.

On to `CCCCn1nnnc1C(c1cccs1)N1CCC(n2c(=O)[nH]c3ccccc32)CC1` (stereo not given), for which the inhibition was inactive: -17%.

Take `O=C(NCC1(N2CCCCC2)CCCCC1)c1ccc(=O)[nH]c1`: the inhibition is inactive: 6.7%.

Take `COc1ccc(Cl)cc1C(=O)NCC1(N2CCOCC2)CCCCC1`: the inhibition was inactive: -0.2%.

Consider `O=C(NCC1(N2CCCCC2)CCCCC1)c1ccc(Cl)s1`, for which the inhibition was inactive: 9.89%.

`N#CC1(Nc2ccccc2)CCN(Cc2ccccc2)CC1`: the inhibition was inactive: 1.61%.

Turning to `O=c1[nH]c2ccccc2n1C1CCN(C(c2cc3ccccc3o2)c2nnnn2C2CCCCC2)CC1` (stereo not given), the inhibition is inactive: 3.04%.

With `O=C(OC1CN2CCC1CC2)C1c2ccccc2Oc2ccccc21` (stereo not given), the inhibition was inactive: -3.8%.

Take `CCCCn1nnnc1C(c1ccc(OC)cc1)N1CCC(n2c(=O)[nH]c3ccccc32)CC1` (stereo not given): the inhibition was inactive: -14.2%.

As for `CCOC(=O)N1CCC(Nc2ccc(OC)cc2)CC1`, the inhibition is inactive: 4.92%.

For the compound `Cc1cc(C)cc(N(C(=O)c2ccccc2)C2CCN(C(=O)OC(C)(C)C)CC2)c1`, the inhibition was inactive: -5.3%.

As to `O=C(NCC1(N2CCCCC2)CCCCC1)c1ccc(Cl)nc1`, the inhibition is inactive: 5.82%.

Take `O=c1[nH]c2ccccc2n1C1CCN(C(c2ccccc2OC(F)(F)F)c2nnnn2C2CCCCC2)CC1` (stereo not given): the inhibition is inactive: -0.08%.

In the case of `O=C(NCC1(N2CCOCC2)CCCCC1)c1cc2ccccc2o1`, the inhibition was inactive: -9.97%.

Regarding `CCC(c1nnnn1C(C)(C)C)N1CCC(n2c(=O)[nH]c3ccccc32)CC1` (stereo not given), the inhibition is inactive: -3.3%.

`O=C(NCC1(N2CCOCC2)CCCCC1)c1cc(F)c(F)cc1Cl`: the inhibition was inactive: 6.59%.

In the case of `COc1cc(OC)c(C(=O)NCC2(N(C)C)CCCCC2)cc1OC`, the inhibition was inactive: 14.6%.

For the compound `CCCCn1nnnc1C(c1ccnc2ccccc12)N1CCC(n2c(=O)[nH]c3ccccc32)CC1` (stereo not given), the inhibition is inactive: -24.3%.

As to `CC(C)c1ccc(NC2CCN(C(=O)OC(C)(C)C)CC2)cc1`, the inhibition is inactive: -0.75%.

Regarding `CN(C)c1cccc(C(=O)NCC2(N3CCCCC3)CCCCC2)c1`, the inhibition is inactive: 7.09%.

`COc1ccc(CN(CCCl)CCCl)cc1Cl`: the inhibition is inactive: 10%.

`COC(=O)C1(Nc2ccccc2)CCN(Cc2ccccc2)CC1`: the inhibition is inactive: -0.01%.

Turning to `COc1ccc(C(c2nnnn2C2CCCC2)N2CCC(n3c(=O)[nH]c4ccccc43)CC2)cc1` (stereo not given), the inhibition is inactive: -4.19%.

For the compound `CCCOc1ccc(C(=O)NCC2(N(C)C)CCCCC2)cc1OC`, the inhibition was inactive: 6.15%.

Take `Cc1ccc(C(=O)NCC2(N(C)C)CCCCC2)o1`: the inhibition was inactive: 5.87%.

As to `CN1CCC(Nc2cccc(F)c2)CC1`, the inhibition is inactive: -0.92%.

On to `O=C(NCC1(N2CCCCC2)CCCCC1)c1cncc(Br)c1`, for which the inhibition is inactive: -8.91%.

As to `O=c1[nH]c2ccccc2n1C1CCN(C(c2ccccc2OC(F)(F)F)c2nnnn2C2CCCC2)CC1` (stereo not given), the inhibition was inactive: 13.7%.

As to `N#CC1(Nc2ccccc2)CCN(CCc2ccccc2)CC1`, the inhibition is inactive: 1.43%.

With `CCN1CCC(Nc2ccc(Cl)cc2)CC1`, the inhibition was active: 22%.

On to `O=C(NCC1(N2CCCCC2)CCCCC1)c1cccc([N+](=O)[O-])c1`, for which the inhibition was inactive: -1%.

As for `CSc1ccc(C(=O)NCC2(N3CCOCC3)CCCCC2)cc1`, the inhibition is inactive: 0.84%.

`O=C(NCC1(N2CCCCC2)CCCCC1)c1ccc(OC(F)F)cc1`: the inhibition is inactive: 9.12%.

For `CC(C)(C)n1nnnc1C(c1ccccc1OC(F)(F)F)N1CCC(n2c(=O)[nH]c3ccccc32)CC1` (stereo not given), the inhibition is inactive: -8.11%.

As to `O=C(NCC1(N2CCOCC2)CCCCC1)c1cc(=O)[nH]c2ccccc12`, the inhibition was inactive: 5.41%.

`COc1cc(C(=O)NCC2(N3CCCCC3)CCCCC2)ccc1OC(F)F`: the inhibition is inactive: 2.82%.

With `CC(C)c1ccc(C(=O)NCC2(N3CCOCC3)CCCCC2)cc1`, the inhibition was inactive: -1.89%.

Regarding `COc1ccc(NC2CCN(C(=O)OC(C)(C)C)CC2)cc1`, the inhibition is inactive: 12.5%.

In the case of `CN1CCN(CCOC(=O)C(O)(c2ccccc2)c2ccccc2)CC1`, the inhibition was inactive: 3.17%.

As to `CCCCn1nnnc1C(c1cccc2ccccc12)N1CCC(n2c(=O)[nH]c3ccccc32)CC1` (stereo not given), the inhibition was inactive: -23.2%.

`O=C(NCC1(N2CCCCC2)CCCCC1)c1cccc(C(F)(F)F)c1`: the inhibition was inactive: 13.8%.

The values are drawn from PubChem BioAssay AID743126 (The Scripps Research Institute Molecular Screening Center, 2013).
